Our source for the Ki values is BindingDB's records for US9403767.

Protein sequences, listed by entry. Tags and fused reporters are not part of them.
UniProt P35372, whole entry: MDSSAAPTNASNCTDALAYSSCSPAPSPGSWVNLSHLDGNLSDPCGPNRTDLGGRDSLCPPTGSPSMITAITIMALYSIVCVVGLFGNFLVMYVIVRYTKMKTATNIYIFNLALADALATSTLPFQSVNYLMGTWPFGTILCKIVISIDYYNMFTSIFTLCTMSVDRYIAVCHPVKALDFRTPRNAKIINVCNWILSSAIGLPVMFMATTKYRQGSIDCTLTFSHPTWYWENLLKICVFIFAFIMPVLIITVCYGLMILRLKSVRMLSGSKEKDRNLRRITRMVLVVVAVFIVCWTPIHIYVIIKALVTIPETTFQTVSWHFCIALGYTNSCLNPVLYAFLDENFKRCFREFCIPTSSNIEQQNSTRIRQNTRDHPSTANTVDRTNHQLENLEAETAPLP

The target of the test is Mu-type opioid receptor (Homo sapiens, UniProt P35372). The test can be described thus: ASSAY_NAME: Binding Assay DESCRIPTION: The affinity to the human μ-opiate receptor was determined in a homogeneous preparation in microtiter plates. For this, dilution series of the respective compound to be tested were incubated for 90 minutes at room temperature with a receptor membrane preparation (15-40 mg of protein per 250 μl of incubation batch) of CHO-K 1 cells, which express the hum.

Molecules are shown by their SMILES.

For the molecule `COc1ccc(C2(N(C)C)CCC(c3ccccc3)(N(C)C)CC2)cc1` (stereo unspecified), the Ki worked out at 670 nM.

A word on the Ki: it is a dissociation constant, usually derived from enzyme kinetics or from competition with a known ligand. Lower therefore signals a stronger hold on the target.
